Reference: patent US4762820A, “Therapeutic treatment for congestive heart failure” (Trustees of Boston University, priority 1986, dated 1988)

Chains of the proteins cited; added tags and fusions are not shown.
UniProt P37288, whole entry: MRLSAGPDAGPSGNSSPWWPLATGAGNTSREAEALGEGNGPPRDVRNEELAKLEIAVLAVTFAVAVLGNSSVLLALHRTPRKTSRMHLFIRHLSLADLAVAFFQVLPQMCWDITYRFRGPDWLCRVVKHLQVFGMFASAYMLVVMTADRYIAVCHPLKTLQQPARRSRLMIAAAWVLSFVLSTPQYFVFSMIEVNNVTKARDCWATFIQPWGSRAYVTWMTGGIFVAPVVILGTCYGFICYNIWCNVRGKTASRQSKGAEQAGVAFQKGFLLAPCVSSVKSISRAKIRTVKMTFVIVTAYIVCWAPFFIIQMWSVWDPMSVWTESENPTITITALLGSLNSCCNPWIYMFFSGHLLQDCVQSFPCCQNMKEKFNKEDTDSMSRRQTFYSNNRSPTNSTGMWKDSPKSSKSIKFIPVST

Legend:
[1] = target: T1, vascular V1 receptors (Homo sapiens, UniProt P37288); conditions: cited from earlier work
T1 construct: from tissue; host or cells: vasculature of living human patients (in vivo)

[2] = target: T1, vascular V1 receptors; assay: Hemodynamic response to the AVP antagonist in patients with chronic congestive heart failure; type: in vivo
[3] = group of ten patients as a whole
[4] = mean ± SEM, all 10 patients, after 0.5 mg i.v.
[5] = three patients with vasopressin above normal, 0.5 mg i.v.

Substance: [1-(β-mercapto-β,β-cyclopentamethylenepropionic acid), 2-(O-methyl)tyrosine]arginine vasopressin [AVP Antagonist]
- blood pressure ([1]; normally hydrated healthy human subjects): did not alter blood pressure
- blood pressure ([1]; sodium-loaded patients with end-stage renal disease, plasma AVP above normal): decrease the blood pressure
- cardiac index or stroke volume index [2, 3]: no significant changes
- systolic, diastolic or mean blood pressure, or other pressures [2, 3]: no significant change
- BP (mean blood pressure) [2, 4]: 88.5 ± 3.2 mmHg
- CI (cardiac index) [2, 4]: 2.1 ± 0.2 1/min/2^2
- HR (heart rate) [2, 4]: 89.0 ± 4.4 BPM
- LVFP (left ventricular filling pressure) [2, 4]: 24.5 ± 2.3 mmHg
- PAP (mean pulmonary artery pressure) [2, 4]: 37.1 ± 2.2 mmHg
- PAR (pulmonary arteriolar resistance) [2, 4]: 280 d.s.c.^-5
- RAP (right atrial pressure) [2, 4]: 10.0 ± 2.3 mmHg
- SVI (stroke volume index) [2, 4]: 24.6 ± 2.6 m/m^2
- SVR (systemic vascular resistance) ([2]; mean, all 10 patients, after 0.5 mg i.v.): 1810 d.s.c.^-5
- change in systemic vascular resistance and cardiac index ([2]; remaining seven patients, 0.5 mg i.v.): absence of meaningful change
- clinical improvement, share of persons afflicted ([2]; ten patients with congestive heart failure): clinically signficant improvement in thirty percent
- cardiac index [2, 5]: increased
- systemic vascular resistance [2, 5]: declined
- time of maximum effect after administration ([2]; three responding patients, 0.5 mg i.v.): approximately 30 minutes

Read-outs that look alike come from different tables or passages of the source.
